Test results taken from article PMC3267002 (Bioorganic & medicinal chemistry, 2011).

Chains of the proteins cited; added tags and fusions are not shown.
UniProt P14416, whole entry: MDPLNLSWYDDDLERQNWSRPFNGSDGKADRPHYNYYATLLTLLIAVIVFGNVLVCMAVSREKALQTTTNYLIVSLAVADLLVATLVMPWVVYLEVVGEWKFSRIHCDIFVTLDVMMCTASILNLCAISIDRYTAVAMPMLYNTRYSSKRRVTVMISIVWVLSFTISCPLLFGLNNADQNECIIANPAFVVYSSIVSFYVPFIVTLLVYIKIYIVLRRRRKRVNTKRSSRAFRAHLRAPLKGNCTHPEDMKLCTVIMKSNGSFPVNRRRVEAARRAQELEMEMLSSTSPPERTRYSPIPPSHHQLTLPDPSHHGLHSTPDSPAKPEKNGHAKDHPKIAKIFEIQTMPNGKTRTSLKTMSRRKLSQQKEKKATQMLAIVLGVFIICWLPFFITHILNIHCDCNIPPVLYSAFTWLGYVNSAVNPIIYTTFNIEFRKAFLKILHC

Molecular target: D2 receptor (Homo sapiens, UniProt P14416)
Assay: NIMH-PDSP radioligand binding, D2

SMILES: OC1(c2ccc(Cl)cc2)CCN(CCCCc2ccc(F)cc2)CC1 [Compound 5, 4-(4'-chlorophenyl)-1-(4'-(4-fluorophenyl)butyl)piperidin-4-ol]
- decrease in binding to the D2 receptor: 27 fold
